The chains behind the UniProt entries cited, without tags or fusion partners.
ATP-dependent Clp protease proteolytic subunit (Bacillus subtilis (strain 168)), P80244, UniProt P80244, whole entry, looked up: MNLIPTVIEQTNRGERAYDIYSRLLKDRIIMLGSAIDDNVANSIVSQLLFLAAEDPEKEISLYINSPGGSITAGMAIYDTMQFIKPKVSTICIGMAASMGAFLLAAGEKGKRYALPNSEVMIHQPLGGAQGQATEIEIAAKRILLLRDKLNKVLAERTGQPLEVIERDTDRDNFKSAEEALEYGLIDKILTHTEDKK

# Compound activity deposited in PubChem BioAssay by National Center for Advancing Translational Sciences (NCATS).
# A selection: hits, their analogues and other compounds. The true share with any hit is near 3.7%.
# ClpP mod = qHTS Assay for Activators of ClpP. actives 1.9% (n = 340,000). Potency, µM (doses to about 57.5 µM), for inactives: top-dose activity change, negative = active. purified B. subtilis ClpP, FRET peptide cleavage, 20 min. AID 651965, 2013. ATP-dependent Clp protease proteolytic subunit (Bacillus subtilis (strain 168)), P80244; active = well fitted falling curve with a large enough effect; inconclusive = small, poorly fitted or top-dose-only effect; inactive = no such curve, though single readings can be large or run the other way; note: potency is the fitted concentration of half-maximal effect; the source files actives as falling curves though it sought activators and does not explain the sign; nearly all actives have a fitted effect of over 65% in size
#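 Buffer: 100 mM Tris/HCl pH8, 100 mM KCl, 0.05% low protease BSA, 2.5% glycerol, 0.01% Tween-20. ClpP 10 microg/mL final; 20 min RT; delta FRET normalized to ADEP and DMSO controls.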
# A549 viability = kills or reduces viability of A549 cells in Nrf2 counter-screen; A549 ARE-Fluc cells, CellTiter-Fluor viability, 18-24 h; Potency, µM (top dose mostly 46 µM), inactives show at the highest dose activity change, negative = cytotoxicity, most hits filed as inhibitors; actives 0.16% (n = 390,000); AID 504648; note: potency is the fitted concentration of half-maximal effect; % is set by controls: 0 for no effect and ±100 for the full control effect
#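 Cytotoxicity counterscreen: CellTiter-Fluor fluorescence was measured in A549 ARE_Fluc cells after 18-24 h of compound exposure in a concentration series. The subsequent BugLite luminescent read reports ARE-luciferase activity.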
# miR-21 FLuc = miR-21 reporter, rising signal. HeLa miR-21 FLuc reporter, luciferase, 48 h. Potency, µM (titrated, usually from 38.3 µM), without a hit: at the top dose reporter change, positive = more light. 340,000 tested, under 10 active. AID 2288; active = well fitted rising curve with a large enough effect; inconclusive = small, poorly fitted or top-dose-only effect; inactive = no such curve, though single readings can be large or run the other way;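 also: % of control where 0% means no effect; miR-21 action dims this reporter so a rising signal means less miR-21 action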
#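 Luminescence from a firefly luciferase reporter carrying a miR-21 binding site downstream, stably expressed under a CMV promoter in HeLa cells that make miR-21 endogenously, reports miRNA modulation after 48 h compound exposure up to approximately 40uM final.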
# IL-2 act = IL-2 activation | IL-2 activation reporter assay, cell-based qHTS; stimulated with anti-CD3/CD4/CD28 beads; in transgenic mouse T cells | activation, % (series mostly up to about 46 µM) | actives 0.065% (n = 360,000) | AID 652025; in the data active = activation above about 50%; inconclusive = mostly about 30% to 49%; note: 0% is about no effect
#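 Readout: EGFP and DsRed signals by fluorescent plate cytometry. Unstimulated transgenic mouse T cells received compound 60 min before antibody-bead stimulation, then incubated 18 h at 37 degrees C.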
# Nrf2 inh = blocks Nrf2 signaling | A549 ARE-Fluc reporter, luciferase luminescence, 18-24 h | Potency, µM (doses to about 46 µM), inactives show top-dose activity change, negative = inhibition, usual class: inhibitors | actives 2.1% (n = 360,000); note: potency is the fitted concentration of half-maximal effect; % is set by controls: 0 for no effect and ±100 for the full control effect; nearly all actives have a fitted effect of over 60% in size
#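 Quantitative HTS in A549 cells stably bearing an antioxidant response element-firefly luciferase construct. Inhibition of Nrf2-driven transcription was scored by luminescence after 18-24 h of compound exposure at 37 °C.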
# Nrf2 activator = Nrf2 pathway activation. actives 0.31% (n = 410,000). Potency, µM (series often up to 46.1 µM), for the others: top-dose activation, most hits filed as activators. AREc32 ARE-luciferase reporter (MCF7-derived line), luminescence, 24 h; note: potency is the fitted concentration of half-maximal effect; % of control where 0% means no effect; nearly all actives have a fitted effect of over 65% in size
#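 AREc32 cells carrying an ARE-driven firefly luciferase, 1000 cells/well in OPTI-MEM with 5% FBS, dosed after overnight attachment and incubated 24 hr at 37 deg C. Steady-Glo luminescence read after 30 min at RT.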
# The depositor's hits bear a star; ? = inconclusive; · = no result given; ! = a repeat was not active. Unless noted, calls come from the whole dose curve; as a rule, active = well fitted curve in the direction sought with a large enough effect; inconclusive = small, poorly fitted or top-dose-only effect, or another doubt; inactive = no such curve, though single readings can be large; an effect the other way counts as inactive or inconclusive.
SMILES,ClpP mod,A549 viability,miR-21 FLuc,IL-2 act,Nrf2 inh,Nrf2 activator
Cc1ccc2nc(/N=C(\N)NC(=O)NC3CCCCC3)nc(C)c2c1,·,23.1µM*,20.0%,-4.0,8.2µM*,5.1%
CCCC(=O)N/C(N)=N/c1nc(C)c2cc(C)ccc2n1,·,-19.5%,-23.5%,-0.7,?,-0.3%
N#Cc1nc(Nc2cc(F)cc(F)c2)c2ncn(CCO)c2n1,·,-19.8%,·,·,-5.7%,·
O=S(=O)(c1cc(F)ccc1F)N1CCN(c2ncnc3ccccc23)CC1,-3.5%,-17.9%,·,-1.0,11.6µM*,0.1%
O=S(=O)(c1cc(F)ccc1F)N1CCN(c2ccccn2)CC1,-7.1%,1.2%,-6.0%,0.4,-1.6%,0.0%
Cc1ccc(-c2nc3cc(Cl)ccc3o2)cc1NC(=O)COc1ccc(F)cc1,-2.0%,-2.6%,-19.6%,·,-19.7%,5.2%
OC(c1ccccc1)c1nc2ccccc2[nH]1 (stereo unspecified),15.8µM*,-0.3%,-3.0%,1.6,-18.4%,-1.7%
CCN(CC)CCC(c1ccc2c(c1)OCO2)c1c(OC)cc(OC)c2ccc(=O)oc12 (stereo unspecified),-9.3%,16.4µM*,-4.1%,0.3,7.2%,10.6%
COc1cc(OC)c2ccc(=O)oc2c1C(CC(=O)N1CCCC1)c1ccc2c(c1)OCO2 (stereo unspecified),-13.5%,-19.1%,-12.2%,-0.2,2.5%,3.7%
CCN(CC)CCC(c1cc(OC)c(OC)c(OC)c1)c1c(OC)cc(OC)c2ccc(=O)oc12 (stereo unspecified),-7.7%,14.6µM*!,-1.4%,-0.5,9.6%,9.9%
N#CCCN(C(=O)CSc1nc2nc(-c3cccs3)cc(C(F)(F)F)c2c(=O)[nH]1)c1ccccc1,·,1.6%,-6.1%,0.0,20.6µM*,-0.9%
O=C(CSc1nc2nc(-c3cccs3)cc(C(F)(F)F)c2c(=O)[nH]1)Nc1c(F)c(F)c(F)c(F)c1F,·,-13.3%,4.5%,-0.8,?,0.0%
Fc1ccc2c(c1)/C(=N/Nc1ccccn1)CCS2,·,0.4%,-22.7%,-3.1,7.8%,11.2µM*
COc1ccc2c(C)c(CC(=O)N3CCN(C(=O)C4COc5ccccc5O4)CC3)c(=O)oc2c1C (stereo unspecified),3.9%,5.8%,-1.1%,1.1,15.2%,-0.3%
Cc1c(CC(=O)N2CCN(C(=O)C3COc4ccccc4O3)CC2)c(=O)oc2cc(O)c(Cl)cc12 (stereo unspecified),4.2%,1.0%,-3.0%,-0.7,23.1µM*,0.0%
C=CC[n+]1c(-c2ccc(OC)cc2)csc1NNC(=O)Nc1ccccc1,0.4%,-7.2%,5.9%,-0.8,14.6µM*,3.6%
CSc1ccccc1NC(=O)CSc1n[nH]c(C)c1[N+](=O)[O-],-0.2%,0.1%,-7.3%,0.1,3.3%,3.4%
Cc1ccc(O)c(NC(=O)CSc2n[nH]c(C)c2[N+](=O)[O-])c1,·,0.1%,1.9%,-0.6,6.1%,11.2µM*
COc1ccc(Cc2noc(CN3CCN(c4ccc(Cl)cn4)CC3)n2)cc1OC,-0.3%,-12.4%,15.4%,-0.3,25.9µM*,0.3%
COc1cccc(Cn2c(=O)cc(C)c3c(C)nn(C)c32)c1,-10.6%,-3.0%,2.1%,·,?,6.8%
O=C(Cn1cnnn1)Nc1ccccc1Cc1ccccc1,28.2µM*,11.2%,-3.5%,0.7,-2.8%,-0.5%
COc1cc2c(NC3CCN(C)CC3)nc(N3CCCN(C)CC3)nc2cc1OCCCC(C)C,4.1%,·,·,·,·,·
COc1ccccc1N1CCN(CCNC(=O)Nc2cccc(C)c2C)CC1,31.6µM*,?,3.8%,0.1,-22.8%,0.4%
COc1cc(OC)c(OC)cc1/C=c1\[nH]c(=O)/c(=C/c2cc(OC)c(OC)cc2OC)[nH]c1=O,2.5%,·,·,·,·,·
CN(C(=O)c1ccc2c(c1)OCO2)C1(C(=O)NC2CCCCC2)CCCCC1,0.4%,-16.7%,-3.5%,-1.7,-4.7%,0.3%

# Whole records, quoted from the list. Order of screens: ClpP mod | A549 viability | miR-21 FLuc | IL-2 act | Nrf2 inh | Nrf2 activator
# COc1cc2c(NC3CCN(C)CC3)nc(N3CCCN(C)CC3)nc2cc1OCCCC(C)C in the list: 4.1% | · | · | · | · | ·
# Cc1ccc(O)c(NC(=O)CSc2n[nH]c(C)c2[N+](=O)[O-])c1 in the list: · | 0.1% | 1.9% | -0.6 | 6.1% | 11.2µM*
# O=C(CSc1nc2nc(-c3cccs3)cc(C(F)(F)F)c2c(=O)[nH]1)Nc1c(F)c(F)c(F)c(F)c1F in the list: · | -13.3% | 4.5% | -0.8 | ? | 0.0%
# CSc1ccccc1NC(=O)CSc1n[nH]c(C)c1[N+](=O)[O-] in the list: -0.2% | 0.1% | -7.3% | 0.1 | 3.3% | 3.4%
# CCN(CC)CCC(c1ccc2c(c1)OCO2)c1c(OC)cc(OC)c2ccc(=O)oc12 (stereo unspecified) in the list: -9.3% | 16.4µM* | -4.1% | 0.3 | 7.2% | 10.6%

# Further compounds
SMILES,ClpP mod,A549 viability,miR-21 FLuc,IL-2 act,Nrf2 inh,Nrf2 activator
O=C(c1ccc2c(c1)OCO2)N(Cc1ccco1)C1(C(=O)NC2CCCCC2)CCCCC1,-7.0%,?,10.4%,-3.9,18.4µM*,2.9%
CCOc1ccc(-n2c(=O)c3c(C)c(C)sc3n(CC(=O)C(C)(C)C)c2=O)cc1,-0.5%,-16.7%,-5.3%,·,-2.7%,0.4%
COc1ccccc1N1CCN(C(=O)c2cc3cc(F)ccc3[nH]2)CC1,·,-2.3%,-4.9%,-0.5,?,6.1%
Cc1cccc(N2CCN(C(=O)c3cc4cc(F)ccc4[nH]3)CC2)c1C,-0.1%,-4.4%,-8.5%,-0.9,17.8%,7.08µM*
Cc1ccc(S(=O)(=O)C(CNC(=O)C(=O)NCc2ccccc2C)c2cccs2)cc1 (stereo unspecified),-2.4%,10.1%,12.6%,·,·,4.2%
CN(CCC#N)S(=O)(=O)c1ccc2[nH]cc(C(=O)NCCc3ccccc3)c(=O)c2c1,28.2µM*,1.4%,-3.2%,0.0,1.5%,2.1%
CCN(CC)S(=O)(=O)c1ccc2[nH]cc(C(=O)NCCCN3CCCCC3)c(=O)c2c1,28.2µM*,0.2%,-10.1%,0.5,-0.4%,0.4%
CCN(CC)S(=O)(=O)c1ccc2[nH]cc(C(=O)NCCCN3CCCCC3C)c(=O)c2c1 (stereo unspecified),22.4µM*,4.2%,-2.9%,0.3,-2.3%,0.3%
CCN(CC)S(=O)(=O)c1ccc2[nH]cc(C(=O)NCCN3CCCCC3C)c(=O)c2c1 (stereo unspecified),?,1.6%,-0.5%,0.0,-0.1%,0.0%
Cc1ccccc1N(C)S(=O)(=O)c1ccc2[nH]cc(C(=O)NCC3CCCO3)c(=O)c2c1 (stereo unspecified),31.6µM*,0.1%,10.4%,-2.1,-0.3%,0.1%
CCN(CC)S(=O)(=O)c1ccc2[nH]cc(C(=O)NCCN3CCCCCC3)c(=O)c2c1,?,-0.5%,-5.2%,-0.6,0.5%,-0.4%
CCc1ccc(N(C)S(=O)(=O)c2ccc3[nH]cc(C(=O)NCC4CCCO4)c(=O)c3c2)cc1 (stereo unspecified),-19.5%,6.2%,19.4%,·,·,1.2%
Cc1ccc(C)c(N2CCN(S(=O)(=O)c3ccc4[nH]c5c(c4c3)CCCCC5)CC2)c1,?,3.1%,15.8%,·,-15.5%,-1.0%
Cc1ccc(C)c(NC(=O)Cn2c(=O)nc(-c3ccccc3)c3ccccc32)c1,-13.8%,-28.2%,2.3%,·,·,3.3%
c1ccc(-c2cnc(CSc3nnc4ccccn34)o2)cc1,-9.9%,-7.8%,-33.7%,1.5,?,-0.5%
